Laboratory results published in publication PMC5447132, “RalBP1 and p19-VHL play an oncogenic role, and p30-VHL plays a tumor suppressor role during the blebbishield emergency program” (Cell Death Discovery, 2017).

Molecular target: the molecule itself
Test: SDS-PAGE and western blotting of cell lysates; whole-cell lysates boiled in SDS sample buffer with β-mercaptoethanol; 15% gel; VHL antibody; oligomeric state read from the band sizes

B1: monomeric p19-VHL (19-kDa monomer) (natural protein, human (endogenous in RT4P), UniProt P40337-3 1-160, looked up)
chain: MEAGRPRPVLRSVNSREPSQVIFCNRSPRVVLPVWLNFDGEPQPYPTLPPGTGRRIHSYRGHLWLFRDAGTHDGLLVNQTELFVPSLNVDGQPIFANITLPVYTLKERCLQVVRSLVKPENYRRLDIVRSLYEDLEDHPNVQKDLERLTQERIAHQRMGD
notes: Von Hippel-Lindau protein, p19 isoform (19 kDa), made from an alternative initiation codon; Identified only as a 19-kDa band on a VHL western blot; also called VHL p19 isoform; monomeric VHL; source: endogenous, RT4P lysate (also lysates of other human cancer cell lines)
stoichiometry N: 2 and 3 and 4

Where “and” joins values, the source holds several entries; their conditions need not be identical. Equal entries are not always repeated.
